The test system of the test is UGT1A1 mRNA. The test can be described thus: UGT1A1 mRNA level in human hepatocytes after 48 h treatment (RT-PCR). As to conditions: Omeprazole 50 μM, Lot 361.

Regarding `COc1ccc2[nH]c([S+]([O-])Cc3ncc(C)c(OC)c3C)nc2c1` (stereo not shown) [Omeprazole, omeprazole], the “UGT1A1 mRNA (Fold Change)” value turned out to be 3.9 ± 0.24 Fold Change.

Values taken from PMC7150891, “Mertansine Inhibits mRNA Expression and Enzyme Activities of Cytochrome P450s and Uridine 5′-Diphospho-Glucuronosyltransferases in Human Hepatocytes and Liver Microsomes” (Pharmaceutics, 2020).
